An excerpt weighted towards active compounds, which were near 1.3% of everything screened.
UUG fidelity – modulators of yeast start codon fidelity, primary screen, whole organism, S. cerevisiae, single point, plate reader; S. cerevisiae UUG-firefly luciferase reporter, luminescence/redox ratio; activity score, % at 18.7 µM; 0.13% of 350,000 active; AID 602363, 2012;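 active = replicate mean at a twofold rise or more, about +100% in these data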;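 also: firefly luciferase made from a UUG start codon reports start codon fidelity; reporter light over untreated wells divided by growth signal over untreated wells; some hits fall short of that in this replicate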
INS-1E GSIS act – primary screen for activators of insulin secretion dependent on glucose, INS-1E cells, GLuc reporter luminescence. INS-1E GLuc reporter insulin secretion, 2-3 h. activation, % at 16.6 µM. hit rate 0.61% among 370,000. AID 743287;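 active = lowest replicate activation of at least 40%, so every replicate reaches that level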
SR-BI HDL uptake – blocks mouse SR-BI lipid uptake from DiI-HDL. AID 488896. hit rate 0.96% among 320,000. inhibition, % at 12.5 µM. ldlA[mSR-BI] CHO cells, DiI-HDL uptake fluorescence, 3 h;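 active = mean replicate inhibition of at least 70% and a set share of replicates each scoring 70 or more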
SR-BI DiI-HDL act – SR-BI HDL lipid transfer activation; CHO ldlA[mSR-BI] cells, DiI-HDL uptake fluorescence, 3 h; 100 = double the neutral-control signal; activation, % at 12.5 µM; hit rate 0.096% among 320,000; AID 504775;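 active = mean replicate activation of at least 60% and every replicate at or above 60%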
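material = CHO ldlA[mSR-BI] cells | medium = Ham's F12 with 0.5% BSA, HEPES 25 mM, pH 7.4 | reagent = fluorescent DiI-HDL, 10 µg/mL final | compound dosing = single-point compound dose | incubation = 3 h, 37 °C | measured by = bottom-read fluorescence, 550/595 nm | measure = HDL uptake via cellular fluorescence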
Large screens that a line does not name were inactive.

CC1(C)Cc2c(C#N)c(N3CCCC3)nc(-c3ccco3)c2CO1	none (no result: SR-BI HDL uptake, SR-BI DiI-HDL act)
CCN(CC)c1ccc(/C=N/N2CCN(c3ccccc3OC)CC2)cc1	SR-BI HDL uptake 81.0
Cc1[nH]n(-c2ccccc2)c(=O)c1/C=N/NC(=O)c1cccc([N+](=O)[O-])c1	SR-BI HDL uptake 111.8 (no result: INS-1E GSIS act)
CC(=O)N/N=C/c1c(C)[nH]n(-c2ccccc2)c1=O	none (no result: UUG fidelity)
CC(/C=N/NC(=O)c1cccc([N+](=O)[O-])c1)=C\c1ccccc1	INS-1E GSIS act 49.5
CC/C(=N/NC(=O)c1ccccc1O)c1c(C)[nH]n(-c2ccccc2)c1=O	SR-BI HDL uptake 137.0
O=C(N/N=C/c1ccncc1)c1cccc([N+](=O)[O-])c1	none (no result: UUG fidelity, SR-BI HDL uptake, SR-BI DiI-HDL act)
Cc1[nH]n(-c2ccccc2)c(=O)c1C(=O)c1ccccc1	none
Cc1[nH]n(-c2ccccc2)c(=O)c1/C=N/NC(=O)c1ccccc1F	SR-BI HDL uptake 105.8
C[C@H]1CCCCO[C@@H](CN(C)C(=O)c2ccccc2)[C@@H](C)CN([C@@H](C)CO)C(=O)c2cc(NC(=O)Nc3ccc(C(F)(F)F)cc3)ccc2O1	none (no result: SR-BI HDL uptake, SR-BI DiI-HDL act)
CCCCCCCOC(=O)c1nc(Cl)c(Cl)c(N)c1Cl	INS-1E GSIS act 416.3
CCCCOC(=O)c1nc(Cl)c(Cl)c(N)c1Cl	none
C[C@@H]1CN([C@@H](C)CO)C(=O)Cc2cc(NC(=O)CCCN(C)C)ccc2O[C@H]1CN(C)C	none (no result: SR-BI HDL uptake, SR-BI DiI-HDL act)
Cc1ccc(C(=O)Oc2ccc(-c3nccc(-c4ccccn4)n3)cc2)cc1	INS-1E GSIS act 56.4
CCCNC(=O)C[C@@H]1CC[C@@H]2[C@H](COC[C@@H](O)CN2C(=O)Nc2c(C)noc2C)O1	none (no result: SR-BI HDL uptake, SR-BI DiI-HDL act)
CCCCC(=O)N/N=C/c1ccc(-c2ccc([N+](=O)[O-])cc2)o1	none (no result: UUG fidelity)
Cc1cc(C)n(Cc2ccc(C(=O)N/N=C/c3ccc(-c4ccc([N+](=O)[O-])cc4)o3)o2)n1	SR-BI HDL uptake 103.5
C[C@@H](NC(=O)C[C@@H]1CC[C@@H](NC(=O)c2cccnc2)[C@@H](CO)O1)c1ccccc1	none (no result: UUG fidelity, SR-BI HDL uptake, SR-BI DiI-HDL act)
Cc1sc(NC(=O)c2ccco2)nc1-c1ccc2c(c1)CC(C)N2C(=O)C1CC1 (stereo unspecified)	SR-BI HDL uptake 78.7 (no result: UUG fidelity)
Cc1ccc(S(=O)(=O)Nc2c3ccccc3nc(=O)n2-c2ccccc2)cc1	INS-1E GSIS act 58.9
O=C(Nc1ccc(F)cc1)N1C[C@H]2[C@@H](c3ccccc31)[C@H](CO)N2Cc1ccccc1	none (no result: SR-BI HDL uptake, SR-BI DiI-HDL act)
COc1ccc2c3c([nH]c2c1)[C@@H](CO)N(C(=O)C1CCCC1)CC31CCN(C)CC1	none (no result: UUG fidelity, SR-BI HDL uptake, SR-BI DiI-HDL act)
CCNc1nc(NCC)nc(N(C)/N=C/c2ccco2)n1	INS-1E GSIS act 62.2
CC(=O)Nc1ccc(S(=O)(=O)Nc2ccc3c(c2)n(C)c(=O)n3C)c(C)c1	INS-1E GSIS act 97.8 (no result: SR-BI HDL uptake, SR-BI DiI-HDL act)
CC(=O)Nc1ccc2c(c1)n(C)c(=O)n2C	none (no result: INS-1E GSIS act)
CNC[C@@H]1OCCCC[C@H](C)Oc2ccc(NC(=O)C3CCCCC3)cc2C(=O)N([C@@H](C)CO)C[C@@H]1C	none (no result: UUG fidelity, SR-BI HDL uptake, SR-BI DiI-HDL act)
Cc1nn(C)cc1NC(=O)C[C@H]1CC[C@H]2[C@@H](COc3ccc(NC(=O)Nc4cccc(Cl)c4)cc3C(=O)N2C)O1	none (no result: SR-BI HDL uptake, SR-BI DiI-HDL act)
COc1cc(OC)cc(-c2c(-c3cccs3)c3cc(-c4ccc5cc[nH]c5c4)ccc3n2C)c1	SR-BI HDL uptake 109.0
COc1cccc(-c2c(-c3cc(OC)cc(OC)c3)n(C)c3ccc(-c4ccc5cc[nH]c5c4)cc23)c1	none
COc1cc(OC)cc(-c2c(-c3cccs3)c3cc(-c4ccc5[nH]ccc5c4)ccc3n2C)c1	SR-BI HDL uptake 79.6
C[C@@H]1CN([C@H](C)CO)C(=O)c2cc(C#C[C@@H](C)O)cnc2O[C@H]1CN(C)Cc1cccc(F)c1	none (no result: SR-BI HDL uptake, SR-BI DiI-HDL act)
CC(C)NC(=O)Nc1ccc2c(c1)C(=O)N([C@H](C)CO)C[C@@H](C)[C@@H](CN(C)C(=O)NC1CCCCC1)OCCCC[C@@H](C)O2	none (no result: UUG fidelity, SR-BI HDL uptake, SR-BI DiI-HDL act)
CN(C)/C=C/C(=O)c1ccc2noc(-c3ccc(F)cc3)c2c1	SR-BI HDL uptake 86.5
Cc1ccc(-c2onc3ccc(C(=O)/C=C/N(C)C)cc23)cc1	none
CC1(C)CC[C@]2(C(=O)O[C@@H]3OC(CO)[C@@H](O)[C@H](O)[C@H]3O)CC[C@]3(C)C(=CCC4[C@@]5(C)CC[C@H](O[C@@H]6OC(C(=O)O)[C@@H](O)[C@H](O)[C@H]6O)C(C)(C)C5CC[C@]43C)[C@@H]2C1 (stereo partly specified)	none
COC(=O)C1OC(OC2CC[C@]3(C)C(CC[C@@]4(C)[C@@H]3CC=C3[C@@H]5CC(C)(C)CC[C@]5(C(=O)OC5OC(CO)C(O)C(O)C5O)CC[C@]34C)C2(C)C)C(O)C(O)C1O[C@H]1OCC(O)C(O)C1O (stereo partly specified)	SR-BI DiI-HDL act 119.1 (no result: INS-1E GSIS act)
Cc1nnsc1C(=O)N/N=C/c1ccc2ccccc2c1O	SR-BI HDL uptake 126.4 (no result: UUG fidelity)
Cc1nnsc1C(=O)N/N=C/c1ccccc1	none (no result: UUG fidelity)
C[C@@H]1CN([C@@H](C)CO)C(=O)Cc2cc(NS(C)(=O)=O)ccc2O[C@@H]1CN(C)C(=O)Nc1ccccc1	none (no result: SR-BI HDL uptake, SR-BI DiI-HDL act)
COc1ccc(-c2cc3nc4ccccc4n3c(N)c2C#N)cc1	INS-1E GSIS act 86.2 (no result: UUG fidelity, SR-BI HDL uptake, SR-BI DiI-HDL act)
COc1cc(C(=O)NCCc2c[nH]c3ccccc23)ccc1OCc1c(C)noc1C	SR-BI HDL uptake 83.1
O=[N+]([O-])c1cccc(Oc2ncccc2[N+](=O)[O-])c1	INS-1E GSIS act 77.6
Cc1ccc2nc(N/N=C/c3ccccc3C#N)nc(-c3ccccc3)c2c1	INS-1E GSIS act 48.3
COc1ccc(CCC(C)NC(=O)CCc2ccccc2)c(OC)c1 (stereo unspecified)	none
COc1cc(OC)c(OC)cc1CCC(C)NC(=O)Cc1ccccc1 (stereo unspecified)	INS-1E GSIS act 44.0
C[C@@H]1CCCCO[C@@H](CN(C)Cc2ccncc2)[C@H](C)CN([C@H](C)CO)C(=O)c2cc(NC(=O)Nc3ccccc3)ccc2O1	none (no result: UUG fidelity, SR-BI HDL uptake, SR-BI DiI-HDL act)
COc1cc(OC)cc(C(=O)NNC(=O)c2cc3ccccc3cc2O)c1	SR-BI HDL uptake 113.6
COc1ccccc1NC(=O)NNC(=O)c1cc2ccccc2cc1O	SR-BI HDL uptake 93.7
Cc1ccc(NC(=O)NNC(=O)c2cc3ccccc3cc2O)cc1	none (no result: SR-BI DiI-HDL act)
COc1ccc(C(=O)NNC(=O)c2ccc3ccccc3c2)cc1	none
C[C@H]1CN([C@@H](C)CO)C(=O)c2cccc(NC(=O)NC3CCCCC3)c2O[C@@H]1CN(C)S(=O)(=O)c1cn(C)cn1	none (no result: SR-BI HDL uptake, SR-BI DiI-HDL act)
O=C(Nc1cc(Sc2ccccn2)cc([N+](=O)[O-])c1)c1ccc([N+](=O)[O-])cc1	SR-BI HDL uptake 89.8 (no result: INS-1E GSIS act)
O=C(NC[C@H]1CCCO1)c1cccc2c1C(=O)c1ccc(-c3ccc(F)cc3OCc3ccccc3)cc1S2(=O)=O	none
Cc1cc(CNC(=O)c2cccc3c2C(=O)c2ccc(-c4ccc(F)cc4OCc4ccccc4)cc2S3(=O)=O)c(C(F)(F)F)o1	SR-BI HDL uptake 90.1
COc1ccccc1C(OC(=O)c1cccs1)C(=O)NCC1CCCO1 (stereo unspecified)	INS-1E GSIS act 56.9
CO[C@@H]1CN(C)C(=O)c2cc(NS(C)(=O)=O)ccc2OC[C@H](C)N(C(=O)CC2CC2)C[C@@H]1C	none (no result: SR-BI HDL uptake, SR-BI DiI-HDL act)
Cn1c(SCc2cccc(C(F)(F)F)c2)nnc1-c1ccco1	SR-BI DiI-HDL act 164.0 (no result: INS-1E GSIS act)
